{
  "source": "patent US20090081318A1",
  "about": "“TREATMENT OF NEUROADS USING INHIBITORS OF GLYCOGEN SYNTHASE KINASE (GSK)-3” (priority 2005, published 2009)",
  "key": {"[1]": {"test_system": "subjects with HIV-associated cognitive impairment", "experiment": "Diffusion tensor imaging (DTI) of brain", "assay_type": "in vivo, human", "details": "VPA vs. placebo, baseline to week 10, adjusted for baseline", "protocol": "(§1) Proton (1H) magnetic resonance spectroscopy (MRS) and diffusion tensor imaging (DTI) were performed at baseline and week 10, using a 1.5 Tesla General Electric Signa MRI scanner (with twinspeed gradients and EXCITE11 software). Single-voxel proton spectra were acquired from three locations in the brain: midline of the frontal lobes; right (or left) mid-frontal centrum semi-ovale; and right (or left) basal ganglia (BG), and relative peak areas of N-acetyl aspartate (NAA), creatine (Cr), choline (Cho), and myo-inositol (MI) were determined.\n(§2) Changes from baseline were assessed using paired t-tests. Comparisons between treatment arms were based on unequal-variance two-sample t-tests for continuous variables, and Fisher's Exact Tests for categorical variables. Comparisons between treatment arms were adjusted for baseline values using Analysis of Covariance. Primary statistical analyses were performed according to the intention-to-treat principle, using the last-observation-carried-forward imputation strategy for subjects who prematurely dropped out of the study. Secondary analyses excluded such subjects."}, "[2]": {"test_system": "subjects with HIV-associated cognitive impairment", "experiment": "Proton magnetic resonance spectroscopy (MRS) of brain", "assay_type": "in vivo, human", "details": "for Cho/Cr Basal Ganglia, Treatment Effect / Cho/Cr Centrum Semi-Ovale, Treatment Effect / Cho/Cr Mid-Frontal Gray Matter, Treatment Effect / MI/Cr Basal Ganglia, Treatment Effect / MI/Cr Centrum Semi-Ovale, Treatment Effect / MI/Cr Mid-Frontal Gray Matter, Treatment Effect / NAA/Cr Basal Ganglia, Treatment Effect / NAA/Cr Centrum Semi-Ovale, Treatment Effect / NAA/Cr Mid-Frontal Gray Matter, Treatment Effect: VPA vs. placebo, baseline to week 10, adjusted for baseline", "protocol": "as §1, §2"}},
  "data": [
    {"compound": "CCCC(CCC)C(=O)O", "note": "[Valproic Acid, Valproic acid]", "values": [
      {"measurement": "FA (fractional anisotropy) Basal Ganglia, Treatment Effect", "setting": "[1]; All Subjects", "value": "−0.02"},
      {"measurement": "FA (fractional anisotropy) Centrum Semi-Ovale, Treatment Effect", "setting": "[1]; All Subjects", "value": 0.01},
      {"measurement": "FA (fractional anisotropy) Mid-Frontal Gray Matter, Treatment Effect", "setting": "[1]; All Subjects", "value": 0.03},
      {"measurement": "Tra (trace) Basal Ganglia, Treatment Effect", "setting": "[1]; All Subjects", "value": 0.07},
      {"measurement": "Tra (trace) Centrum Semi-Ovale, Treatment Effect", "setting": "[1]; All Subjects", "value": 0.01},
      {"measurement": "Tra (trace) Mid-Frontal Gray Matter, Treatment Effect", "setting": "[1]; All Subjects", "value": 0.01},
      {"measurement": "FA (fractional anisotropy) Basal Ganglia, Treatment Effect", "setting": "[1]; Impaired Subjects", "value": "−0.01"},
      {"measurement": "FA (fractional anisotropy) Centrum Semi-Ovale, Treatment Effect", "setting": "[1]; Impaired Subjects", "value": 0.00},
      {"measurement": "FA (fractional anisotropy) Mid-Frontal Gray Matter, Treatment Effect", "setting": "[1]; Impaired Subjects", "value": 0.00},
      {"measurement": "Tra (trace) Basal Ganglia, Treatment Effect", "setting": "[1]; Impaired Subjects", "value": 0.04},
      {"measurement": "Tra (trace) Centrum Semi-Ovale, Treatment Effect", "setting": "[1]; Impaired Subjects", "value": 0.03},
      {"measurement": "Tra (trace) Mid-Frontal Gray Matter, Treatment Effect", "setting": "[1]; Impaired Subjects", "value": 0.02},
      {"measurement": "Cho/Cr Basal Ganglia, Treatment Effect", "setting": "[2]; All Subjects", "value": 0.00},
      {"measurement": "Cho/Cr Centrum Semi-Ovale, Treatment Effect", "setting": "[2]; All Subjects", "value": 0.08},
      {"measurement": "Cho/Cr Mid-Frontal Gray Matter, Treatment Effect", "setting": "[2]; All Subjects", "value": 0.10},
      {"measurement": "MI/Cr Basal Ganglia, Treatment Effect", "setting": "[2]; All Subjects", "value": 0.06},
      {"measurement": "MI/Cr Centrum Semi-Ovale, Treatment Effect", "setting": "[2]; All Subjects", "value": 0.07},
      {"measurement": "MI/Cr Mid-Frontal Gray Matter, Treatment Effect", "setting": "[2]; All Subjects", "value": 0.71},
      {"measurement": "NAA/Cr Basal Ganglia, Treatment Effect", "setting": "[2]; All Subjects", "value": "−0.14"},
      {"measurement": "NAA/Cr Centrum Semi-Ovale, Treatment Effect", "setting": "[2]; All Subjects", "value": "0.46^2"},
      {"measurement": "NAA/Cr Mid-Frontal Gray Matter, Treatment Effect", "setting": "[2]; All Subjects", "value": 0.48},
      {"measurement": "Cho/Cr Basal Ganglia, Treatment Effect", "setting": "[2]; Impaired Subjects", "value": 0.01},
      {"measurement": "Cho/Cr Centrum Semi-Ovale, Treatment Effect", "setting": "[2]; Impaired Subjects", "value": 0.12},
      {"measurement": "Cho/Cr Mid-Frontal Gray Matter, Treatment Effect", "setting": "[2]; Impaired Subjects", "value": 0.17},
      {"measurement": "MI/Cr Basal Ganglia, Treatment Effect", "setting": "[2]; Impaired Subjects", "value": "0.26^4"},
      {"measurement": "MI/Cr Centrum Semi-Ovale, Treatment Effect", "setting": "[2]; Impaired Subjects", "value": 0.18},
      {"measurement": "MI/Cr Mid-Frontal Gray Matter, Treatment Effect", "setting": "[2]; Impaired Subjects", "value": 1.23},
      {"measurement": "NAA/Cr Basal Ganglia, Treatment Effect", "setting": "[2]; Impaired Subjects", "value": "−0.17"},
      {"measurement": "NAA/Cr Centrum Semi-Ovale, Treatment Effect", "setting": "[2]; Impaired Subjects", "value": "0.83^3"},
      {"measurement": "NAA/Cr Mid-Frontal Gray Matter, Treatment Effect", "setting": "[2]; Impaired Subjects", "value": "0.95^1"},
      {"measurement": "NAA/Cr in the frontal white matter (FWM)", "setting": "[2]; cognitively impaired subjects on VPA, p=0.006", "value": "significant NAA/Cr increase"}
    ]}
  ]
}
